Test results: ChEMBL document CHEMBL4359863, “Structure-guided development of purine amide, hydroxamate, and amidoxime for the inhibition of non-small cell lung cancer” (Eur J Med Chem, 2019)

The chains behind the UniProt entries cited, without tags or fusion partners. Where a name states a change or a piece, a line headed by the entry shows the natural chain unless it says otherwise.
UniProt P06241, whole entry, looked up: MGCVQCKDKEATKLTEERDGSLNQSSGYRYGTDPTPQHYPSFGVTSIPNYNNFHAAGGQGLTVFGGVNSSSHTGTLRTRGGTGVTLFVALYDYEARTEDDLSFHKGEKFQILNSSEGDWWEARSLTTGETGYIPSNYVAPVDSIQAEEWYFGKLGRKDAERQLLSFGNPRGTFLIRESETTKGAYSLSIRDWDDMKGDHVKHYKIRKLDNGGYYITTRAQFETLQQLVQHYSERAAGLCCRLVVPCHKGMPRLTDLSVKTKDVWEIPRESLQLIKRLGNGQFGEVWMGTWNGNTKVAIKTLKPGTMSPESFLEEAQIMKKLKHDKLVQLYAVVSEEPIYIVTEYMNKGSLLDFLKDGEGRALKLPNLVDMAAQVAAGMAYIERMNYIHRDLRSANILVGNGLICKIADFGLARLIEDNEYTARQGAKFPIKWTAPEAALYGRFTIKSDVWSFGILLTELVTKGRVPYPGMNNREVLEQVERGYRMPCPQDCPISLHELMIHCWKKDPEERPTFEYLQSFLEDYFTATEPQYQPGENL
UniProt P52630: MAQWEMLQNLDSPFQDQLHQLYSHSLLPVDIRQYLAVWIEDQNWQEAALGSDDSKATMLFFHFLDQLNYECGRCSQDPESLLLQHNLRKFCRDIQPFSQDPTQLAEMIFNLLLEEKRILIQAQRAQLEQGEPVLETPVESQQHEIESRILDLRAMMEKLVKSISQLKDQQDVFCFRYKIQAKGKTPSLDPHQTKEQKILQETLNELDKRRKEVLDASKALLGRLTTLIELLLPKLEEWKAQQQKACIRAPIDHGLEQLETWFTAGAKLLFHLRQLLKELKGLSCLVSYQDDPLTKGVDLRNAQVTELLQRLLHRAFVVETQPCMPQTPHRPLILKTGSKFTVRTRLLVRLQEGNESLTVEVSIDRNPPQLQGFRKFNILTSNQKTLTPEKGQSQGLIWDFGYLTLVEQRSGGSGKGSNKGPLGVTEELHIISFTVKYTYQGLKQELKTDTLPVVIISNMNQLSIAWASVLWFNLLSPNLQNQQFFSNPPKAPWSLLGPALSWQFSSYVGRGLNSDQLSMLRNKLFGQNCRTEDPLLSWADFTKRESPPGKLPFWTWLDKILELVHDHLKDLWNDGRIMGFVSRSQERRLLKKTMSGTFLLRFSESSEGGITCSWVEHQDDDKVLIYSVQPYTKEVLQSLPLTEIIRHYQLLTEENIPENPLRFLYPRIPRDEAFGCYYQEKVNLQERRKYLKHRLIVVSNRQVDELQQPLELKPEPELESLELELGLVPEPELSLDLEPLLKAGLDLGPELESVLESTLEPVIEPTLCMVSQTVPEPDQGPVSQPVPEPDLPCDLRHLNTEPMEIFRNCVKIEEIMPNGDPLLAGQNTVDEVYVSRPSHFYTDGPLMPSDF

Experiments:
Type in all cases: cell-based
[1] = biological target: Tyrosine-protein kinase Fyn (Homo sapiens) (UniProt P06241); assay: Effect on FYN at Y420 phosphorylation level in human NCI-H1975 incubated for 12 hrs by human phosphokinase proteome profiler array relative to control
[2] = biological target: Signal transducer and activator of transcription 2 (Homo sapiens) (UniProt P52630); assay: Effect on STAT2 at Y689 phosphorylation level in human NCI-H1975 incubated for 12 hrs by human phosphokinase proteome profiler array relative to beta-catenin
[3] = biological target: T1, Signal transducer and activator of transcription 5A (Homo sapiens) (UniProt P42229); assay: Effect on STAT5a at Y694 phosphorylation level in human NCI-H1975 incubated for 12 hrs by human phosphokinase proteome profiler array relative to beta-catenin
T1 sequence (whole entry): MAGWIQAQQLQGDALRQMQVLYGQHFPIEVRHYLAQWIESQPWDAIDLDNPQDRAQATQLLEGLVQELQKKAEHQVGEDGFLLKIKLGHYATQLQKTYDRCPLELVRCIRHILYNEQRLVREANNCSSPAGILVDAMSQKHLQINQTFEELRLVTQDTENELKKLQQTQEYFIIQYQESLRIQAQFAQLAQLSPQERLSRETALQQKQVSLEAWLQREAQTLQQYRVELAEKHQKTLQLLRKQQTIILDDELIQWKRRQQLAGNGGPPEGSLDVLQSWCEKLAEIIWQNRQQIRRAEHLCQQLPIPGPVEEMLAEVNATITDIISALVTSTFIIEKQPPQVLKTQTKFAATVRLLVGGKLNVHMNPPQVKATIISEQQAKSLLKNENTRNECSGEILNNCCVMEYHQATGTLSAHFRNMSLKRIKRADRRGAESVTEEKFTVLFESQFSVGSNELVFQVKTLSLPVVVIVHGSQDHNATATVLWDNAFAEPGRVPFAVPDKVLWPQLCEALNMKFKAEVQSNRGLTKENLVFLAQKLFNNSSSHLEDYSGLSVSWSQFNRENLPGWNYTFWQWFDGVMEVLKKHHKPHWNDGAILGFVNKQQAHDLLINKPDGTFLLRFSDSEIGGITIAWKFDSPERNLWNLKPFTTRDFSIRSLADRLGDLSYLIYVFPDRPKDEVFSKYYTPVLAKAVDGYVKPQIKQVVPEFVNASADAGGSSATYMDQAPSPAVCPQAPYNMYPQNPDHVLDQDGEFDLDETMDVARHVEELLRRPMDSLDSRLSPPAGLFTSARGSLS

Row | Structure (SMILES) | fold change (FC) [1] | fold change (FC) [2] | fold change (FC) [3]
1 | CCOc1ccc(-c2nc(/C(N)=N/O)c3[nH]c(=O)n(-c4ccccc4OC)c3n2)cc1 | 0.75 | 0.88 | 0.91
2 | CCOc1ccc(-c2nc(C(=O)NO)c3[nH]c(=O)n(-c4ccccc4OC)c3n2)cc1 | 0.8 | 1.15 | 0.75
